Test results published in patent US7351687B2, “Antibiotic 107891, its factors A1 and A2, pharmaceutically acceptable salts and compositions, and use thereof” (priority 2003, dated 2008).
≈ marks a conversion by molar mass, not a printed value.

Test system: Ent. faecalis

SMILES: C=C1NC(=O)[C@H](Cc2c[nH]c3ccccc23)NC(=O)[C@H](NC(=O)/C(=C/C)NC(=O)[C@@H](N)C(C)C)CSC[C@@H](C(=O)N[C@H]2C(=O)N3CCC[C@H]3C(=O)NCC(=O)N[C@H](C(=O)N[C@H](C(=O)N[C@@H]3CSC[C@@H]4NC(=O)[C@H](CC(N)=O)NC(=O)[C@@H](CSC[C@@H]5NC(=O)[C@H](Cc6ccccc6)NC(=O)[C@@H](CS/C=C\NC5=O)NC4=O)NC(=O)CNC(=O)CNC(=O)CNC(=O)[C@@H]4CCCN4C3=O)[C@@H](C)O)CS[C@H]2C)NC(=O)[C@H](CC(C)C)NC1=O [MF-BA-1768β1, reference compound]
- MIC: 8 µg/mL (≈ 3.67 µM)
